Earlier results, collected in patent US7030081B2, “Muteins of the CGRP 1-7 peptide fragment and use thereof as nicotinic neuronal receptor enhancers” (S.I.S.S.A.- Scuola Internazionale Superiore di Studi …, priority 2000, dated 2006).

Tested on: nAChRs
Details: Giniatullin et al.; cited from earlier work

## Calcitonin Gene Related Peptide (ACDTATCVTHRLAGLLSRSGGVVKNNFVPTNVGSKAF; Calcitonin gene-related peptide 1; UniProt P06881 83-119, looked up) [CGRP, endogenously occurring whole 37 amino acid neuropeptide]
  action on nAChRs reported earlier (in words): block nAChRs competitively
